{"sequences": {"note": "The chains behind the UniProt entries cited, without tags or fusion partners. Residues count along the entry.", "UniProt O43791, 28-166": "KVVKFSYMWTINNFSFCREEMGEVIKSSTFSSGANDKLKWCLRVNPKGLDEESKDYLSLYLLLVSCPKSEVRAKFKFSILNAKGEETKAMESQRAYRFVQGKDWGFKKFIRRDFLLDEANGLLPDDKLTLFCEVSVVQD"}, "source": "paper PMC7618200", "about": "(The Biochemical journal, 2025)", "molecular_target": "T1, SPOP^MATH (SPOP MATH domain) (Homo sapiens, UniProt O43791)", "T1 construct": "bacterially expressed SPOP protein (SPOP^MATH); hexahistidine-MBP (with HRV 3C site) (N, cleaved yes); made in house; host or cells: E. coli BL21 (DE3); tracer peptide synthesized by Peptide Synthetics", "test": "FP competition assay: unlabelled peptide versus Puc-5Flu peptide on SPOP^MATH", "assay_type": "binding", "protocol": "Peptides and SPOP^MATH protein were diluted in FP buffer (50 mM HEPES pH 7.5, 100 mM NaCl, 1 mM TCEP, 0.005% Tween-20). Measurements were made in 384-well black flat-bottom low-flange plates (Corning) using 20 μl reaction volumes. Plates were equilibrated at room temperature for 30 minutes before reading. Millipolarization (mP) measurements were taken in a Hidex Sense microplate reader (Hidex) at 25°C, with excitation at 490 nm (20 nm filter), emission at 520 nm (14 nm filter), and a G-factor of 1.\nThe technical duplicate mP values were averaged, and error bars represent standard deviation. Data were plotted and analyzed using Prism 9 software. […] IC50 values from three independent experiments were averaged and the standard deviation was calculated.", "data": [{"smiles": "CSCC[C@H](NC(=O)[C@H](CC(N)=O)NC(=O)[C@@H](N)CC(N)=O)C(=O)N1CCC[C@H]1C(=O)N[C@H](C(=O)N[C@@H](CCC(N)=O)C(=O)N[C@@H](Cc1c[nH]c2ccccc12)C(=O)N[C@@H](CC(N)=O)C(=O)N[C@@H](CCC(=O)O)C(=O)N[C@H](C(=O)N[C@@H](CO)C(=O)N[C@@H](CO)C(=O)NCC(=O)N[C@H](C(=O)N[C@H](C(=O)N[C@@H](CC(=O)O)C(=O)N[C@@H](C)C(=O)O)C(C)C)[C@@H](C)O)C(C)C)C(C)C", "values": [{"measurement": "IC50", "value": "5.3 ± 1.2", "unit": "µM"}]}]}
